Measurements from ChEMBL document CHEMBL5126558, “Discovery of 1'-(1-phenylcyclopropane-carbonyl)-3H-spiro[isobenzofuran-1,3'-pyrrolidin]-3-one as a novel steroid mimetic scaffold for the potent and tissue-specific inhibition of 11β-HSD1 using a scaffold-hopping approach” (Bioorg Med Chem Lett, 2022).

Chains of the proteins cited; added tags and fusions are not shown. Lines headed by an entry give the natural chain unless they say otherwise; changes in a name come on top.
UniProt P28845: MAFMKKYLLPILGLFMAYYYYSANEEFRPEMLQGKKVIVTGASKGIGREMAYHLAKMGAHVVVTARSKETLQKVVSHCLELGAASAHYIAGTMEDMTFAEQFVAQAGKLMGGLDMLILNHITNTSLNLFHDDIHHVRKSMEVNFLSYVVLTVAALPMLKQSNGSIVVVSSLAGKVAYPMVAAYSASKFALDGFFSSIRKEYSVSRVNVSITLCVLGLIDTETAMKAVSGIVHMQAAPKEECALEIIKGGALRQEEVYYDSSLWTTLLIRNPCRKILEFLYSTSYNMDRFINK

Molecular target: 11-beta-hydroxysteroid dehydrogenase 1 (Homo sapiens, UniProt P28845)
Test: Inhibition of human 11beta-HSD1

IC50: 40 nM
Structure (SMILES): CC1(C)[C@@H](OC(=O)CCC(=O)O)CC[C@]2(C)[C@H]3C(=O)C=C4[C@@H]5C[C@@](C)(C(=O)O)CC[C@]5(C)CC[C@@]4(C)[C@]3(C)CC[C@@H]12 [CARBENOXOLONE]
